The values below are quoted from earlier work in patent US12295943B2 (Closed Loop Medicine Ltd., priority 2023, dated 2025).

Consider `COc1ccc(-n2nc(C(N)=O)c3c2C(=O)N(c2ccc(N4CCCCC4=O)cc2)CC3)cc1` [Apixaban], for which, for the setting “human, in vivo”, the “active metabolites in plasma” value is reported as “no active metabolites” and the “dose proportionality of plasma exposure” value is reported as “increases proportionally with dose up to 10 mg”. Further, under “with food”, the “total exposure with food” value is “unaffected”.
